## Measured affinities in a library of Ab-14 light chain variants

The measurements come from Li et al. 2023 (doi:10.1038/s41467-023-39022-2) through the FLAb antibody collection.

Target: peptide PDVDLGDISGINAS, taken from heptad repeat 2 (HR2) of SARS-CoV-2 spike.

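The starting antibody came from a phage panning campaign against this peptide. Designed CDR sequences, proposed from the first random library and measured here. Their group label is 14L_En_HC (En: ensemble of fine-tuned language models; HC: hill climbing; a sequence that several methods proposed may carry one label only). Affinity was read by AlphaSeq, a pooled yeast mating assay with surface-displayed partners. Mating (16 h, 30 °C) was followed by selection of diploids and sequencing of their barcodes. Scores were corrected for input abundance and mapped to Kd with protein pairs of known affinity run in the same pool. Mating was done six times.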

The variants keep the heavy chain, the linker and the frameworks of Ab-14 (scFv order VH, a (GGGGS)3 linker, VL).
VH: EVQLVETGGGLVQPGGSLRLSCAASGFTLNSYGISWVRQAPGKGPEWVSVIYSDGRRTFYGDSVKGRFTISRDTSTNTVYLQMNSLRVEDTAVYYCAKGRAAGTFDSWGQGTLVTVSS
VL: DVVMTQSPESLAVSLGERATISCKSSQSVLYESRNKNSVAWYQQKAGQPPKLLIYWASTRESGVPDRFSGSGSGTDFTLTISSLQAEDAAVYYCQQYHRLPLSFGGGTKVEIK

The parent's light chain CDRs are KSSQSVLYESRNKNSVA, WASTRES, QQYHRLPLS; each variant's own CDRs replace them letter for letter. Scale: log10 of Kd in nM, estimated from mating counts; low values are strong binders. "ND" means that the variant was in the library but no mating with the target was seen in that replicate; the authors take this as a sign of poor binding, and no number exists. Of ten entries with the parent sequence, four were seen in most replicates (averages 0.34 to 2.37), three in one and three in none, so single entries are noisy. Nonspecific signal, from three strains lacking the peptide, appeared in 4% of pairings of all light chain designs, centred on 2.64 (5% of these signals below 1.59); values are not corrected for it. Also given: how often the same scFv was detected with the empty control strains, with their mean in brackets. The authors averaged sequences with at least three values out of six and counted those with two or fewer as poor binders. Values of this round are not directly comparable with the first-round values of the same sequences.

CDR-L1	CDR-L2	CDR-L3	log10 Kd, replicates	empty controls
HISMSVGVTSFNKNSVA	ENSTREN	QQYDRLPLS	ND 2.04 1.68 2.48 2.18 1.93	2/18 (2.64)
KISQMFNVGTKNTSSLA	EMNTRGM	QDYHRLPLS	2.45 3.64 ND 3.26 2.63 3.17	0/18
KVTEMMAFLSSNRNSVA	DNSTRGS	QQYHRLPLS	ND ND ND 3.17 ND ND	0/18
KIAQSMAMTSHHINSVA	QSTTREE	QQYNRLPLA	0.49 0.35 0.33 0.24 0.23 0.43	0/18
HLSDTVMQGSYYRQSVA	QESTRAD	QQYHRLPLS	-0.02 0.12 0.10 0.05 0.22 0.33	1/18 (2.79)
KLSVSWYFESIEKNSVA	ERSTRES	QDYNRLPLS	1.76 1.94 1.15 1.60 0.98 1.44	0/18
KLLQNVMTEGRNRNNVA	HMDMRED	QQYWRLPLS	-0.23 -0.30 -0.36 -0.46 -0.42 -0.32	1/18 (2.89)
LISGVWDYGSRNYNSVA	QTSTRES	QQYDRLPLE	1.02 1.36 0.73 1.43 0.87 1.82	0/18
KLSLFYRVETVQKNSVA	DNSTRES	QDYDRLPLS	ND 2.54 ND ND 3.16 2.56	0/18
KLTISGLHQSIDKKSIA	ERSTREN	QQYHRLPLS	1.08 ND 1.61 1.52 2.63 0.93	0/18
KISQMYRYEQQNSSSIA	EMNTREQ	QSYHRLPLS	ND ND ND ND ND ND	0/18
KISFQYRYEQLAKNSIA	EVQTRLK	QQYHRLPLS	1.29 0.80 1.58 0.67 1.06 1.35	0/18
KISQLVNFLGKGKNSVA	QMSTRES	QQYDRLPLS	1.01 0.69 1.41 0.38 0.88 1.16	2/18 (2.64)
HISPGFMVESRLKNSVA	QTSTRES	QQYDRLPLS	1.23 0.81 1.47 1.07 0.60 1.10	0/18
TIGPYLMTESRNKNNVA	GMQTRER	QQYHRLPLS	1.41 0.52 0.72 0.71 0.76 1.63	0/18
ALSQSMDMTSRNRNSVA	DLTTREN	QQYHRLPLS	0.41 0.95 0.31 0.40 0.51 0.51	1/18 (2.73)
ILSDTVMQGSYYKNSVA	QESTRAD	QQYHRLPLS	0.12 0.11 0.39 -0.07 -0.03 0.40	0/18
KLSVMASYLSVNKNSVA	EMTTREN	QQYDRLPLS	1.75 1.86 1.73 0.70 1.04 1.50	0/18
TISQSTYWETFNRNNVA	QTSTREE	QDYDRLPLS	2.05 1.39 1.97 1.43 1.78 1.16	1/18 (2.12)
QLLMATMQGEYNRNSVA	HAETRED	QSYHRLPLS	0.78 0.31 0.90 0.82 0.78 1.27	0/18
IISQVDAYESRIKNSIA	DQSTRGS	QQYDRLPLS	-0.22 -0.26 0.12 -0.22 -0.63 -0.02	0/18
KLYQTVGYESRNKSRVA	DNSTRES	QQYDRLPLS	ND ND ND 4.39 2.78 ND	1/18 (1.83)
KISMLQRYESQAKNSIA	EMSRREN	QQYHRLPLS	0.19 0.09 -0.09 -0.16 0.06 0.12	0/18
KVREVQHVESKQKNNVA	DNSTRES	QDYYRLPLS	3.22 2.69 4.20 2.95 3.90 3.51	5/18 (3.05)
KLSISGLHETIDKKSIA	ERSTREN	QQYHRLPLS	0.63 0.29 0.29 0.22 0.61 0.61	1/18 (2.38)
KISWNMGETQRNKNSVA	EVSTVPS	QQYWRLPLS	0.64 0.19 0.32 0.55 0.64 0.69	2/18 (2.82)
KISYQYRFEQLSKNNIA	EVVTRLK	QQYHRLPLS	1.30 1.76 2.10 1.20 2.22 1.55	1/18 (2.34)
TIGQSTLMESMNRNNVA	QMSTREK	QQYDRLPLS	1.07 1.93 1.60 0.79 1.67 1.09	0/18
KLGQLVGYESRNKSRVA	DNSTRES	QQYDRLPLS	ND ND 1.70 ND ND ND	1/18 (2.33)
KLYASTMLESHNKNSIA	DLSTRGN	QQYHRLPLS	0.86 0.20 0.98 -0.06 0.59 0.43	1/18 (1.48)
KLSQVTEYESHNKNNVA	DLTTRGR	QDYHRLPLS	0.42 0.49 0.65 0.19 0.17 0.37	1/18 (4.11)
KLLQTVMNGTRNRNNVA	HMTTRED	QQYHRLPLS	2.05 0.79 0.46 0.93 0.48 0.87	0/18

Picked from the list: the 3 lowest averages where every replicate gave a value.

CDR-L1	CDR-L2	CDR-L3	log10 Kd, replicates	empty controls
KLLQNVMTEGRNRNNVA	HMDMRED	QQYWRLPLS	-0.23 -0.30 -0.36 -0.46 -0.42 -0.32	1/18 (2.89)
IISQVDAYESRIKNSIA	DQSTRGS	QQYDRLPLS	-0.22 -0.26 0.12 -0.22 -0.63 -0.02	0/18
KISMLQRYESQAKNSIA	EMSRREN	QQYHRLPLS	0.19 0.09 -0.09 -0.16 0.06 0.12	0/18